{"source": "patent US4774345A", "about": "“Amine-complexed zinc salts of organic diacids” (Engelhard Corporation, priority 1986, dated 1988)", "assay": "Salt spray exposure, Example VI (ASTM B117-73; alkyd and latex primers)", "data": [{"substance": "Zinc Succinate Ethylenediamine [Compound 1]", "values": [{"measurement": "Salt spray durability, in words", "result": "superior to \"Zinc Yellow\" (zinc chromate) in salt spray durability"}]}]}
